From paper PMC12200682 (PLOS One, 2025)

The chains behind the UniProt entries cited, without tags or fusion partners.
UniProt P11387, whole entry: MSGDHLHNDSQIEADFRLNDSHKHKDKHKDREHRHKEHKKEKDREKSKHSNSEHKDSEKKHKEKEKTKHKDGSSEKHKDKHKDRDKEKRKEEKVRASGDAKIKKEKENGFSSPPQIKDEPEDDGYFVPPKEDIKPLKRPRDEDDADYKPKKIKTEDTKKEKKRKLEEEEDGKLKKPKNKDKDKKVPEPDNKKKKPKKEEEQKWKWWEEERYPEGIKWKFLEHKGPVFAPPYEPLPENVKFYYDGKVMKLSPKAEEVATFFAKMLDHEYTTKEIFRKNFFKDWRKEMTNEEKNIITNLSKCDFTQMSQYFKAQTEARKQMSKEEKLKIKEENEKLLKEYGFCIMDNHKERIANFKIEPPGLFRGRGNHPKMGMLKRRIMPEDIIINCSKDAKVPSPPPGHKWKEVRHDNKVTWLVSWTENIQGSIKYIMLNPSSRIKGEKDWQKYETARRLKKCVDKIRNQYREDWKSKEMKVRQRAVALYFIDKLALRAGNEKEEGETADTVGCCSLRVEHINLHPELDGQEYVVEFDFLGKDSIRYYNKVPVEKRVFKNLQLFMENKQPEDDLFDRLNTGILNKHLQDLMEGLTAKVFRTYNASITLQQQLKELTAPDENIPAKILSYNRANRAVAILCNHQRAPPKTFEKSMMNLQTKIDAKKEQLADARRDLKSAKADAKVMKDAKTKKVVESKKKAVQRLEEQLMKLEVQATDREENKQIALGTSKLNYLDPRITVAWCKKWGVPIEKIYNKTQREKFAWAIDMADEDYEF

How the values were obtained:
[1] = Pharmacokinetics of payload in mice; assay type: in vivo, C57BL/6 mice; conditions: 0.5 mg/kg, i.v. injection
[2] = Parallel artificial membrane permeability (PAMPA) assay; assay type: in vitro ADME
Description: PAMPA assay was outsourced to Wuxi Apptech Co. Ltd. Briefly, donor plate, acceptor plate and receiver plate formed a sandwich and 200 µL of 5.0 µM donor solutions were added. The concentrations of compounds in both plates were measured by a LC-MS/MS system after 30 minutes. The permeability coefficient (Peff, nm/s) values at pH 5 and 7.4 were calculated.

human topoisomerase I = human topoisomerase I (Homo sapiens, UniProt P11387); assay: Topoisomerase I inhibition assay; assay type: biochemical; conditions: read-out: Top I inhibition (IC50)
Description: Topoisomerase I inhibition assay was outsourced to Wuxi Apptech Co. Ltd. Topoisomerase I activity was measured using human topoisomerase I microplate assay kit (Inspiralis), according to the manufacturer’s instructions.

[3] = Lipophilicity assay (chromatographic LogD); assay type: physicochemical; conditions: from HPLC retention time
Description: Distribution coefficient (LogD, pH 7.4) was obtained by a high-throughput alternative method. Each compound was dissolved in DMSO at 10 mM. After centrifugation, the solution was measured by reversed-phase HPLC on a C18 column (50 × 4.6 mm, […] Gemini C18, Phenomenex) at pH 7.4, using fast gradient acetonitrile-aqueous buffer mobile phases. The lipophilicity was estimated from a calibration curve using six reference compounds by plotting their respectively measured retention time versus LogD in literature. The chromatographic LogD values were derived directly from the gradient retention time by using this calibration curve.

Structure (SMILES): CC[C@@]1(O)C(=O)OCc2c1cc1n(c2=O)Cc2c-1nc1cc(F)c(C)c3c1c2[C@@H](NC(=O)CO)CC3
- CL [1]: 54 mL/min/kg
- Vss [1]: 1.276 L/kg
- t1/2 [1]: 16.2 min
- PAMPA Peff ([2]; pH 5): 2.59 ×10⁻⁶ cm/s
- PAMPA Peff ([2]; pH 7.4): 1.75 ×10⁻⁶ cm/s
- IC50 (human topoisomerase I): 970 nM
- LogD (pH 7.4) [3]: 1.43
